From PubChem BioAssay (NCI)
Some tests of the compounds listed are not included; inactive here does not mean inactive elsewhere.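 Growth conditions: 96-well plates. Treatment: test compound, 48 hours, 5 concentrations. Analysis: linear interpolation between bracketing concentrations; unreached endpoints set to highest concentration. The concentration for 50% growth inhibition is given as GI50.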

Columns and labels:
Experiment in all cases: NCI-60 cell line screen, 48 h; in the data active = GI50 below about 0.43 µM; inactive = the rest
RPMI-8226 leukemia = tested on: RPMI-8226 leukemia
SN12C renal = tested on: SN12C renal
MDA-MB-435 = tested on: MDA-MB-435
HCT-116 colon = tested on: HCT-116 colon
UO-31 renal = tested on: UO-31 renal
SNB-75 CNS = tested on: SNB-75 CNS
NCI-H460 lung = tested on: NCI-H460 lung
CAKI-1 renal = tested on: CAKI-1 renal
MDA-N = tested on: MDA-N
KM12 colon = tested on: KM12 colon
SK-MEL-28 melanoma = tested on: SK-MEL-28 melanoma
SK-MEL-5 melanoma = tested on: SK-MEL-5 melanoma
HT29 colon = tested on: HT29 colon
OVCAR-4 ovarian = tested on: OVCAR-4 ovarian
SF-295 CNS = tested on: SF-295 CNS
U251 CNS = tested on: U251 CNS
DU-145 prostate = tested on: DU-145 prostate
HS 578T breast = tested on: HS 578T breast
SK-MEL-2 melanoma = tested on: SK-MEL-2 melanoma
COLO 205 colon = tested on: COLO 205 colon
NCI/ADR-RES ovarian = tested on: NCI/ADR-RES ovarian
TK-10 renal = tested on: TK-10 renal
IGROV1 ovarian = tested on: IGROV1 ovarian
SK-OV-3 ovarian = tested on: SK-OV-3 ovarian
SF-539 CNS = tested on: SF-539 CNS
RXF 393 renal = tested on: RXF 393 renal
UACC-257 melanoma = tested on: UACC-257 melanoma
MALME-3M melanoma = tested on: MALME-3M melanoma
SNB-19 CNS = tested on: SNB-19 CNS
SW-620 colon = tested on: SW-620 colon
OVCAR-8 ovarian = tested on: OVCAR-8 ovarian
OVCAR-3 ovarian = tested on: OVCAR-3 ovarian
HOP-92 NSCLC = tested on: HOP-92 NSCLC
OVCAR-5 ovarian = tested on: OVCAR-5 ovarian
MCF7 breast = tested on: MCF7 breast
MDA-MB-231 breast = tested on: MDA-MB-231 breast
EKVX NSCLC = tested on: EKVX NSCLC
UACC-62 melanoma = tested on: UACC-62 melanoma
786-0 renal = tested on: 786-0 renal
A549 NSCLC = tested on: A549 NSCLC
HCT-15 colon = tested on: HCT-15 colon
PC-3 prostate = tested on: PC-3 prostate
ACHN renal = tested on: ACHN renal
NCI-H522 lung = tested on: NCI-H522 lung
A498 renal = tested on: A498 renal
NCI-H322M lung = tested on: NCI-H322M lung
SF-268 CNS = tested on: SF-268 CNS
NCI-H23 lung = tested on: NCI-H23 lung
BT-549 breast = tested on: BT-549 breast
HOP-62 NSCLC = tested on: HOP-62 NSCLC
M14 melanoma = tested on: M14 melanoma
K-562 leukemia = tested on: K-562 leukemia
NCI-H226 lung = tested on: NCI-H226 lung
T-47D breast = tested on: T-47D breast

Measured: GI50

C=C(C)C#CC(O)(C(=O)OC1CCN(C)CC1)c1ccccc1 (centres undefined)
inactive: RPMI-8226 leukemia > 100 µM | SN12C renal > 100 µM | MDA-MB-435 = > 100 µM | HCT-116 colon > 100 µM | UO-31 renal 31.7 µM | SNB-75 CNS > 100 µM | NCI-H460 lung > 100 µM | CAKI-1 renal > 100 µM | MDA-N > 100 µM | KM12 colon > 100 µM | SK-MEL-28 melanoma > 100 µM | SK-MEL-5 melanoma > 100 µM | HT29 colon > 100 µM | OVCAR-4 ovarian > 100 µM | SF-295 CNS > 100 µM | U251 CNS > 100 µM | DU-145 prostate > 100 µM | HS 578T breast > 100 µM | SK-MEL-2 melanoma > 100 µM | COLO 205 colon > 100 µM | NCI/ADR-RES ovarian > 100 µM | TK-10 renal > 100 µM | IGROV1 ovarian > 100 µM | SK-OV-3 ovarian > 100 µM | SF-539 CNS > 100 µM | RXF 393 renal > 100 µM | UACC-257 melanoma > 100 µM | MALME-3M melanoma > 100 µM | SNB-19 CNS > 100 µM | SW-620 colon > 100 µM | OVCAR-8 ovarian > 100 µM | OVCAR-3 ovarian > 100 µM | HOP-92 NSCLC > 100 µM | OVCAR-5 ovarian > 100 µM | MCF7 breast > 100 µM | MDA-MB-231 breast > 100 µM | EKVX NSCLC > 100 µM | UACC-62 melanoma > 100 µM | 786-0 renal > 100 µM | A549 NSCLC > 100 µM | HCT-15 colon > 100 µM | PC-3 prostate > 100 µM | ACHN renal > 100 µM | NCI-H522 lung > 100 µM | A498 renal > 100 µM | NCI-H322M lung > 100 µM | SF-268 CNS > 100 µM | NCI-H23 lung > 100 µM | BT-549 breast > 100 µM | HOP-62 NSCLC > 100 µM | M14 melanoma > 100 µM | K-562 leukemia > 100 µM | NCI-H226 lung > 100 µM | T-47D breast > 100 µM
